Patent US20250282874A1 (SUZHOU TRANSCENTA THERAPEUTICS, published 2025)

What was measured:
[1] = molecular target: human IL-1R on HEK293-CD40L reporter cells (human); test: cell-based or functional assay
[2] = molecular target: T1, Human IL-1RI-his (Sino Biological, Cat #10126-H08H) (human, UniProt P14778 18-332); test: competition ELISA, human IL-1β coated, Human IL-1RI-his added with the titrated sample, anti-His-HRP, OD450
T1 construct: not shown: His tag
T1 sequence (looked up): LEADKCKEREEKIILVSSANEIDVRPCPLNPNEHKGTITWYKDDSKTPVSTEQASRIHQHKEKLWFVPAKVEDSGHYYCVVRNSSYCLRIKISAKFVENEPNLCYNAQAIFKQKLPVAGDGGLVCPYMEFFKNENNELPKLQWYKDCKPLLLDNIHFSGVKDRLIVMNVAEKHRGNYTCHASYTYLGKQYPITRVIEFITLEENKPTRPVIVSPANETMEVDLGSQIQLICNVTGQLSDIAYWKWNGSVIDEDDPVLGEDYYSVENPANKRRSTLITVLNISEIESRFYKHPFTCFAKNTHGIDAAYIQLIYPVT

B1: IL-1RA protein (Sino Biological, Cat #10123-HNAE) (ligand, UniProt P18510 26-177, looked up)
chain: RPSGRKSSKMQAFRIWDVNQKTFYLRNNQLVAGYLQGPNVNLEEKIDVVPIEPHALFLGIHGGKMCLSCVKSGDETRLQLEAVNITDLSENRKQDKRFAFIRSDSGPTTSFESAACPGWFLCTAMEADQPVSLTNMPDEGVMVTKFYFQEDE
notes: also called IL-IRA protein
In the case of B1, the “IC50, SEAP at OD 620 nm, HEK-Blue CD40L reporter cells stimulated with human IL-1β” value [1] is reported as 0.524 nM and the IC50 [2] is reported as 8.68 nM.
